Reported melting point values for industrial, environmental and drug-like chemicals

Data: OPERA 2.9 data sets, kmansouri/OPERA on GitHub.

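OPERA's authors assembled the values from existing databases and did not measure them anew. The files give a single number for a compound and property, which may rest on several reports. Method, purity and exact conditions of the single measurements are not given. A value may pool stereoisomers or salt forms, and the file does not say which form was measured. Some upstream entries may be estimates or bounds without being marked so.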

The melting point is given in degrees Celsius.
Cells with "n/a" have no entry in this list.

| SMILES | name | melting point (°C) |
|---|---|---|
| Oc1cncc(F)c1 | 3-Fluoro-5-hydroxypyridine | 162.5 |
| Nc1ccccc1C(=O)NC1CCCC1 | 2-amino-N-cyclopentylbenzamide | 175 |
| CCCCCCOc1ccc(C(c2ccccc2)(c2ccccc2)c2ccccc2)cc1OCCCCCC | 1,2-Bis(hexyloxy)-4-(triphenylmethyl)benzene | 79.6 |
| CCCCCCOC(=O)c1ccccc1C(=O)c1ccc(N(CC)CC)cc1O | Diethylamino hydroxybenzoyl hexyl benzoate | 54 |
| CCCCCCCCCCCCCCC(C)c1cc(C)cc(C)c1O (centres undefined) | 2-(Hexadecan-2-yl)-4,6-dimethylphenol | -14.3 |
| NNC(=O)Cc1ccc2ccccc2c1 | 2-(2-naphthyl)acetohydrazide | 190 |
| O=C(O)c1ccc(N2C(=O)CCC2=O)cc1 | 4-(2,5-Dioxopyrrolidin-1-yl)benzoic acid | 211 |
| Cc1ccccc1-n1nc(C(C)(C)C)cc1N | 3-tert-Butyl-1-(2-methylphenyl)-1H-pyrazol-5-amine | 113 |
| COC(=O)CNS(=O)(=O)c1ccc(N)cc1 | methyl {[(4-aminophenyl)sulfonyl]amino}acetate | 79 |
| Nc1ccccc1C(=O)NCc1ccccc1 | 2-amino-N-benzylbenzamide | 126 |
| CCOC(=O)C(C[C@]1(CC)CCCN2CCc3c([nH]c4ccccc34)[C@@H]21)C(=O)OCC | n/a | 81 |
| NC(=O)NC(C(=O)O)c1ccccc1 (centres undefined) | 2-(carbamoylamino)-2-phenylacetic acid | 202 |
| CC1(C)[C@H]2[C@H](O)OC(=O)[C@H]21 | n/a | 112.8 |
| O=c1[c-](-c2cccc(C(F)(F)F)c2)c(=O)[n+]2ccccc2n1Cc1cncnc1 | Triflumezopyrim | 189.3 |
| O=S(=O)(Cl)C1=Cc2ccccc2CC1 | 3,4-dihydronaphthalene-2-sulfonyl Chloride | 60 |
| CC(O)(c1ccccc1)c1ccccn1.Cl (centres undefined) | 1-Phenyl-1-(pyridin-2-yl)ethanol hydrochloride | 193 |
| Clc1ccc(-c2c(Cl)c(Cl)cc(Cl)c2Cl)cc1Cl | 2,3,3',4',5,6-Hexachlorobiphenyl | 122 |
| C=CCOC(=O)C(C)(C)O | allyl 2-hydroxyisobutyrate | -36.6 |
| Cc1ccccc1-n1cc[nH]c1=S | 1-(2-methylphenyl)-1H-imidazole-2-thiol | 246 |
| O=Cc1ccc(-c2ccccc2[N+](=O)[O-])s1 | 5-(2-Nitrophenyl)thiophene-2-carbaldehyde | 113 |
| O=C1c2ccccc2C(=O)N1C[C@H]1CN(c2ccc(N3CCOCC3=O)cc2)C(=O)O1 | n/a | 219.6 |
| O=C(O)Cc1cc(=O)n(-c2ccccn2)[nH]1 | n/a | 99 |
| S=c1[nH]c2ccccc2n1-c1ccccc1 | 2H-Benzimidazole-2-thione, 1,3-dihydro-1-phenyl- | 142 |
| CC1(C)[C@@H]2CC[C@@]1(C)CC2=O | (1S,4S)-4,7,7-Trimethylbicyclo[2.2.1]heptan-2-one | 186 |
| COC(=O)CCc1cc(-n2nc3ccccc3n2)c(O)c(C(C)(C)C)c1 | n/a | 120.4 |
| O=S(=O)(c1ccc(Cl)nc1)N1CCCCC1 | 2-Chloro-5-(piperidine-1-sulfonyl)pyridine | 131 |
| CC(C)[C@@]12CC[C@@](C)(O1)[C@@H](O)C2 (relative stereo) | n/a | 60 |
| COc1ccc(/C=C(\C#N)C(=O)OCC(C)(C)C2OCC3(CO2)COC(C(C)(C)COC(=O)/C(C#N)=C/c2ccc(OC)c(OC)c2)OC3)cc1OC (stereo partly drawn) | n/a | 202 |
| OC1CNc2c(ccc3ccccc23)C1 (centres undefined) | 3-Hydroxy-1,2,3,4-tetrahydrobenzo[h]quinoline | 145 |
| O=C(O)c1ccccc1CO | 2-(Hydroxymethyl)benzoic acid | 127.5 |
| CC(=O)Oc1ccc(C)cc1 | 4-Tolyl acetate | -14.41 |
| NC(=O)Nc1ccc(N)cc1 | (4-aminophenyl)urea | 156 |
| O=C(CCl)NCc1ccccc1F | 2-Chloro-N-[(2-fluorophenyl)methyl]acetamide | 80 |
| C/N=C(\c1ccccc1Cl)C1(O)CCCC1 | 1-(2-Chloro-N-methylbenzimidoyl)cyclopentanol | 62.4 |
| Cc1nn(C)c(C)c1CC(=O)O | (1,3,5-Trimethyl-1H-pyrazol-4-yl)acetic acid | 224 |
| COc1ccc(F)c(O)c1F | 2,6-Difluoro-3-methoxyphenol | 74.5 |
| C=CC(=O)OCCOC(=O)Nc1cccc(SC)c1 | n/a | 53.2 |
| O=C(O)c1cncs1 | Thiazole-5-carboxylic acid | 170 |
| COc1ccc([N+](=O)[O-])cc1S(=O)(=O)Cl | 2-Methoxy-5-nitrobenzene-1-sulfonyl chloride | 86 |

A selection of 5 entries from above:

| SMILES | name | melting point (°C) |
|---|---|---|
| CC1(C)[C@H]2[C@H](O)OC(=O)[C@H]21 | n/a | 112.8 |
| COC(=O)CNS(=O)(=O)c1ccc(N)cc1 | methyl {[(4-aminophenyl)sulfonyl]amino}acetate | 79 |
| Cc1ccccc1-n1nc(C(C)(C)C)cc1N | 3-tert-Butyl-1-(2-methylphenyl)-1H-pyrazol-5-amine | 113 |
| Cc1ccccc1-n1cc[nH]c1=S | 1-(2-methylphenyl)-1H-imidazole-2-thiol | 246 |
| O=Cc1ccc(-c2ccccc2[N+](=O)[O-])s1 | 5-(2-Nitrophenyl)thiophene-2-carbaldehyde | 113 |